Test results: patent US9976170B2, “Method for evaluating bacterial cell wall integrity” (UNIVERSIDAD AUTONOMA DE MADRID, priority 2011, dated 2018)

Tested on: amoxicilin/clavulanic acid-sensitive E. coli strain

For amoxicilin/clavulanic acid, the viable cells (32/16, 15 minutes of incubation) was 5.62%, the viable cells (32/16, 2 hours of incubation) was 3.77% and the viable cells (32/16, 6 hours) was 0.13%. It also gave a viable cells (32/16, at both 3 and 4 hours) of 0.38%.

Read-outs that look alike come from different tables or passages of the source.
